Laboratory results as given in patent US10092570B2 (Incyte Corporation, priority 2011, dated 2018).
Counter-ions that a name gives are not always drawn.

The chains behind the UniProt entries cited, without tags or fusion partners. Where a name states a change or a piece, a line headed by the entry shows the natural chain unless it says otherwise.
UniProt O00329: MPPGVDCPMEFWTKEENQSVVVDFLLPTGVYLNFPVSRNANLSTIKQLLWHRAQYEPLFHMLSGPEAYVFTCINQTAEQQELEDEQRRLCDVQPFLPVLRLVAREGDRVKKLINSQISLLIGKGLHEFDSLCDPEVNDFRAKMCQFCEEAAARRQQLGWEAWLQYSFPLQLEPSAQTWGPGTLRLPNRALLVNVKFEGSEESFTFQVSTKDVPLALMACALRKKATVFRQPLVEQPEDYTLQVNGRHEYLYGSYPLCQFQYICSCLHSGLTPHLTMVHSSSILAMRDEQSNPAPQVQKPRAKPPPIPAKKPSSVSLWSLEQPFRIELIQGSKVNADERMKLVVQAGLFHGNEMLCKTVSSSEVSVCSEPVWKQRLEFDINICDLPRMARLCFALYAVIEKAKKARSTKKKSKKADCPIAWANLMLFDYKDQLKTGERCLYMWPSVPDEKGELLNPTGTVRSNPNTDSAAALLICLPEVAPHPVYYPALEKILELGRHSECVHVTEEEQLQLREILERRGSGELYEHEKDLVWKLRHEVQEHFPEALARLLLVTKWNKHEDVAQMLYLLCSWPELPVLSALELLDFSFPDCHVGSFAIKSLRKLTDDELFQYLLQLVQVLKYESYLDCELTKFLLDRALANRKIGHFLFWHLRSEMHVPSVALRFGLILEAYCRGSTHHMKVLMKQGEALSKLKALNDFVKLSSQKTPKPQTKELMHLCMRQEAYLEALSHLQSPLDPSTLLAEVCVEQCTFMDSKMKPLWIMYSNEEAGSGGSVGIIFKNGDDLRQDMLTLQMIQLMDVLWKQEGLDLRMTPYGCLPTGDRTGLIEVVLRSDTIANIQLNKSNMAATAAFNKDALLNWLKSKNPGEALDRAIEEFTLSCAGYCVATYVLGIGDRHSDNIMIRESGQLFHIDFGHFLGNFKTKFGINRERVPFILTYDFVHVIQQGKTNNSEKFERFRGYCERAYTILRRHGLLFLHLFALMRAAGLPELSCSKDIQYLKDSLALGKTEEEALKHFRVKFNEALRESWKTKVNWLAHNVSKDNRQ

biological target: PI3Kδ (p110δ/p85α) (Homo sapiens (Human), UniProt O00329); assay: Example A3: PI3Kδ scintillation proximity assay; format: biochemical; details: 20 μM ATP, 4 nM PI3Kδ, read-out: PI3Kδ SPA IC50
Description: [γ-^33P]ATP (10 mCi/mL) was purchased from Perkin-Elmer (Waltham, Mass.). […] PI3Kδ (p110δ/p85α) was purchased from Millipore (Bedford, Mass.). ATP, MgCl2, DTT, EDTA, MOPS and CHAPS were purchased from Sigma-Aldrich (St. Louis, Mo.). Wheat Germ Agglutinin (WGA) YSi SPA Scintillation Beads was purchased from GE healthcare life sciences (Piscataway, N.J.).
The kinase reaction was conducted in polystyrene 384-well matrix white plate from Thermo Fisher Scientific in a final volume of 25 μL. Inhibitors were first diluted serially in DMSO and added to the plate wells before the addition of other reaction components. The final concentration of DMSO in the assay was 0.5%. The PI3K assays were carried out at room temperature in 20 mM MOPS, pH 6.7, 10 mM MgCl2, 5 mM DTT and CHAPS 0.03%. Reactions were initiated by the addition of ATP, the final reaction mixture consisted of 20 μM PIP2, 20 μM ATP, 0.2 μCi [γ-^33P] ATP, 4 nM PI3Kδ. […] 25 mM EDTA, 400 μM ATP. The final concentration of SPA beads was 1.0 mg/mL. After the plate sealing, plates were shaken overnight at room temperature and centrifuged at 1800 rpm for 10 minutes, the radioactivity of the product was determined by scintillation counting on Topcount (Perkin-Elmer). IC50 determination was performed by fitting the curve of percent control activity versus the log of the inhibitor concentration using the GraphPad Prism 3.0 software.

| IC50 [nM] | SMILES |
| --- | --- |
| < 10 | COc1c(C(C)n2nc(C)c3c(N)ncnc32)cc(C)c(C#N)c1-c1ccc(C(=O)N(C)C)nc1 (single isomer, unassigned) [Example 344, 5-{3-[1-(4-amino-3-methyl-1H-pyrazolo[3,4-d]pyrimidin-1-yl)ethyl]-6-cyano-2-methoxy-5-methylphenyl}-N,N-dimethylpyridine-2-carboxamide] |
| < 10 | COc1c(C(C)n2nc(C)c3c(N)ncnc32)cc(C)c(C#N)c1-c1cncc(S(C)(=O)=O)c1 (racemic) [Example 317, 4-[1-(4-amino-3-methyl-1H-pyrazolo[3,4-d]pyrimidin-1-yl)ethyl]-3-methoxy-6-methyl-2-[5-(methylsulfonyl)pyridin-3-yl]benzonitrile] |
| < 10 | COc1c(C(C)n2nc(C(F)F)c3c(N)ncnc32)cc(Cl)c(C)c1C1CN(C(C)C)C1 (racemic) [Example 127, 1-{1-[5-Chloro-3-(1-isopropylazetidin-3-yl)-2-methoxy-4-methylphenyl]ethyl}-3-(difluoromethyl)-1H-pyrazolo[3,4-d]pyrimidin-4-amine] |
| < 10 | COc1c(C(C)n2nc(C)c3c(N)ncnc32)cc(Cl)c(C)c1C1CC(O)C1 (stereo not shown) [Example 166, 3-{3-[1-(4-Amino-3-methyl-1H-pyrazolo[3,4-d]pyrimidin-1-yl)ethyl]-5-chloro-2-methoxy-6-methylphenyl}cyclobutanol trifluoroacetate] |
